From patent publication US11141490B2, “Antibody-drug conjugates based on gold compounds” (Research Foundation of the City University of New York, priority 2018, dated 2021)

What was measured:
Assay type in all cases: cell-based, human
MCF-7 cells = test: Cell viability assay (PrestoBlue), MCF-7; conditions: MCF-7, 72 h
Protocol: (§1) Cell viability assays were carried out to investigate the anti-proliferative effect of the AGCs. […] Auranofin was used for comparative purposes. The main results are collected in FIG. 5 and the results for compound 2 can be found in Table 1). Cells were incubated with the compounds for 72 hours and viability was assessed with Presto Blue. […] As mentioned before, linkers bring considerable advantages in terms of ADC stability.
(§2) Cell viability analysis for all compounds and AGCs described.
(§3) MCF7, MCF10A and BT-474 were obtained from the American Type Culture Collection (ATCC) (Manassas, Va.) and cultured in Dulbecco's modified Eagle's medium (DMEM) (Mediatech) supplemented with 10% FBS, 1% NEAA and 1% penicillin-streptomycin (MCF7 AND MCF1 OA) or DME HG/F12K, NEAA, 2 mM glutamine, 10% FBS/PS and incubated at 37° C. and 5% CO2 in a humidified incubator.
(§4) After 72 h, cell viability was determined by means of the colorimetric cell viability assay PrestoBlue (Invitrogen, Carlsbad, Calif.) according to the manufacturer's intructions. EC50 were fit using GraphPad Prism 7 to best match the experimental data. […] AF has been described to be stable for longer than 72 hours in DMSO solution at room temperature.
(§5) Tables 3 and Table 4 show EC50 Values (μM) in MCF7, MCF10A and BT474 cell lines determined with [AuCl(PPh3)] (DMF), [Au(mba)(PPh3)]

MCF-10A cells = test: Cell viability assay (PrestoBlue), MCF-10A; conditions: MCF-10A non-cancerous breast cell line, 72 h
Protocol: as §1, §2, §3, §4, §5

BT-474 cells = test: Cell viability assay (PrestoBlue), BT-474; conditions: BT-474, 72 h
Protocol: as §1, §2, §3, §4, §5

Trastuzumab [Tz]
EC50 (MCF-7 cells): > 60 µM
EC50 (MCF-10A cells): > 50 µM
EC50 (BT-474 cells): > 60 µM
